Experimental data: ChEMBL document CHEMBL5724796, “Tm Shift (DSF) assay results for EUbOPEN Chemogenomics Library” (2024)
The highest values were mostly taken out for another list; the other results follow.

Assays:
[1] = target: Bromodomain-containing protein 4 (Homo sapiens) (UniProt O60885); conditions: Compound concentration 20.0 uM
[2] = target: T1, Aurora kinase A (Homo sapiens) (UniProt O14965); conditions: Compound concentration 20.0 uM
T1 sequence (whole entry): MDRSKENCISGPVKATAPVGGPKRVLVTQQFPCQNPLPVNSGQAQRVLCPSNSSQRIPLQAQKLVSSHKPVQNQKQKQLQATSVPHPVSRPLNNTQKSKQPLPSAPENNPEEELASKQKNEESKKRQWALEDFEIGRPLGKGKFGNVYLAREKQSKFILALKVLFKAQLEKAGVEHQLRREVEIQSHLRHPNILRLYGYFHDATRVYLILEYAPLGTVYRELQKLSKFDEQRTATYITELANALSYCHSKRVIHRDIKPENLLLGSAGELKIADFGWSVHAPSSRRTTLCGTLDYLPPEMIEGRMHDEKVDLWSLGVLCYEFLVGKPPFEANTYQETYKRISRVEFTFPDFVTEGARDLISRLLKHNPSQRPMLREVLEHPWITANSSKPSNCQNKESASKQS

## COc1ccccc1S(=O)(=O)Nc1ccc2c(c1)CN(C)C(=O)N2
[1]
  ΔTm: 4.91 °C

## CNCc1ccc(-c2[nH]c3cc(F)cc4c3c2CCNC4=O)cc1
[2]
  ΔTm: -1.43 °C
